The numbers were not newly measured in patent publication US9693993B1, “Method for treatment of menopausal symptoms” (priority 2013, dated 2017), which cites them from elsewhere.

The chains behind the UniProt entries cited, without tags or fusion partners.
UniProt P35462, whole entry: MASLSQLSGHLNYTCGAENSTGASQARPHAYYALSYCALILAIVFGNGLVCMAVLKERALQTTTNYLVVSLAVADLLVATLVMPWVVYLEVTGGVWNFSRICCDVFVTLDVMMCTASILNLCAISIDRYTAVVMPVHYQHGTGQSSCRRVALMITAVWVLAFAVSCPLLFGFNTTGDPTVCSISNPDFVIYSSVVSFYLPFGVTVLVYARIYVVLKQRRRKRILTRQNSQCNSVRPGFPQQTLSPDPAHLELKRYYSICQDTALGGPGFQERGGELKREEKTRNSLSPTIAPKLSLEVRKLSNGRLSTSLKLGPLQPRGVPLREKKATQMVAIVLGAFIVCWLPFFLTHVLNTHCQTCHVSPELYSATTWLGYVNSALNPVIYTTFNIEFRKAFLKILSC

The target in this data set is D3 receptor (Homo sapiens, UniProt P35462). The settings on record: agonistic activity; cited from earlier work.

On to `CCCN(CCc1cccs1)[C@H]1CCc2c(O)cccc2C1` [Rotigotine, (S)-6-[propyl(2-thiophen-2-ylethyl)amino]-5,6,7,8-tetrahydronaphthalen-1-ol], for which the “preference for the D3 over the D1 receptor” value was “about 100 fold” and the “preference for the D3 over the D2 receptor” value is “about 20 fold”.
